{"sequences": {"note": "By UniProt entry, the sequences of proteins in these tests, tags left out. Residues count along the entry.", "UniProt Q91ZX7, 20-4545 limits assumed": "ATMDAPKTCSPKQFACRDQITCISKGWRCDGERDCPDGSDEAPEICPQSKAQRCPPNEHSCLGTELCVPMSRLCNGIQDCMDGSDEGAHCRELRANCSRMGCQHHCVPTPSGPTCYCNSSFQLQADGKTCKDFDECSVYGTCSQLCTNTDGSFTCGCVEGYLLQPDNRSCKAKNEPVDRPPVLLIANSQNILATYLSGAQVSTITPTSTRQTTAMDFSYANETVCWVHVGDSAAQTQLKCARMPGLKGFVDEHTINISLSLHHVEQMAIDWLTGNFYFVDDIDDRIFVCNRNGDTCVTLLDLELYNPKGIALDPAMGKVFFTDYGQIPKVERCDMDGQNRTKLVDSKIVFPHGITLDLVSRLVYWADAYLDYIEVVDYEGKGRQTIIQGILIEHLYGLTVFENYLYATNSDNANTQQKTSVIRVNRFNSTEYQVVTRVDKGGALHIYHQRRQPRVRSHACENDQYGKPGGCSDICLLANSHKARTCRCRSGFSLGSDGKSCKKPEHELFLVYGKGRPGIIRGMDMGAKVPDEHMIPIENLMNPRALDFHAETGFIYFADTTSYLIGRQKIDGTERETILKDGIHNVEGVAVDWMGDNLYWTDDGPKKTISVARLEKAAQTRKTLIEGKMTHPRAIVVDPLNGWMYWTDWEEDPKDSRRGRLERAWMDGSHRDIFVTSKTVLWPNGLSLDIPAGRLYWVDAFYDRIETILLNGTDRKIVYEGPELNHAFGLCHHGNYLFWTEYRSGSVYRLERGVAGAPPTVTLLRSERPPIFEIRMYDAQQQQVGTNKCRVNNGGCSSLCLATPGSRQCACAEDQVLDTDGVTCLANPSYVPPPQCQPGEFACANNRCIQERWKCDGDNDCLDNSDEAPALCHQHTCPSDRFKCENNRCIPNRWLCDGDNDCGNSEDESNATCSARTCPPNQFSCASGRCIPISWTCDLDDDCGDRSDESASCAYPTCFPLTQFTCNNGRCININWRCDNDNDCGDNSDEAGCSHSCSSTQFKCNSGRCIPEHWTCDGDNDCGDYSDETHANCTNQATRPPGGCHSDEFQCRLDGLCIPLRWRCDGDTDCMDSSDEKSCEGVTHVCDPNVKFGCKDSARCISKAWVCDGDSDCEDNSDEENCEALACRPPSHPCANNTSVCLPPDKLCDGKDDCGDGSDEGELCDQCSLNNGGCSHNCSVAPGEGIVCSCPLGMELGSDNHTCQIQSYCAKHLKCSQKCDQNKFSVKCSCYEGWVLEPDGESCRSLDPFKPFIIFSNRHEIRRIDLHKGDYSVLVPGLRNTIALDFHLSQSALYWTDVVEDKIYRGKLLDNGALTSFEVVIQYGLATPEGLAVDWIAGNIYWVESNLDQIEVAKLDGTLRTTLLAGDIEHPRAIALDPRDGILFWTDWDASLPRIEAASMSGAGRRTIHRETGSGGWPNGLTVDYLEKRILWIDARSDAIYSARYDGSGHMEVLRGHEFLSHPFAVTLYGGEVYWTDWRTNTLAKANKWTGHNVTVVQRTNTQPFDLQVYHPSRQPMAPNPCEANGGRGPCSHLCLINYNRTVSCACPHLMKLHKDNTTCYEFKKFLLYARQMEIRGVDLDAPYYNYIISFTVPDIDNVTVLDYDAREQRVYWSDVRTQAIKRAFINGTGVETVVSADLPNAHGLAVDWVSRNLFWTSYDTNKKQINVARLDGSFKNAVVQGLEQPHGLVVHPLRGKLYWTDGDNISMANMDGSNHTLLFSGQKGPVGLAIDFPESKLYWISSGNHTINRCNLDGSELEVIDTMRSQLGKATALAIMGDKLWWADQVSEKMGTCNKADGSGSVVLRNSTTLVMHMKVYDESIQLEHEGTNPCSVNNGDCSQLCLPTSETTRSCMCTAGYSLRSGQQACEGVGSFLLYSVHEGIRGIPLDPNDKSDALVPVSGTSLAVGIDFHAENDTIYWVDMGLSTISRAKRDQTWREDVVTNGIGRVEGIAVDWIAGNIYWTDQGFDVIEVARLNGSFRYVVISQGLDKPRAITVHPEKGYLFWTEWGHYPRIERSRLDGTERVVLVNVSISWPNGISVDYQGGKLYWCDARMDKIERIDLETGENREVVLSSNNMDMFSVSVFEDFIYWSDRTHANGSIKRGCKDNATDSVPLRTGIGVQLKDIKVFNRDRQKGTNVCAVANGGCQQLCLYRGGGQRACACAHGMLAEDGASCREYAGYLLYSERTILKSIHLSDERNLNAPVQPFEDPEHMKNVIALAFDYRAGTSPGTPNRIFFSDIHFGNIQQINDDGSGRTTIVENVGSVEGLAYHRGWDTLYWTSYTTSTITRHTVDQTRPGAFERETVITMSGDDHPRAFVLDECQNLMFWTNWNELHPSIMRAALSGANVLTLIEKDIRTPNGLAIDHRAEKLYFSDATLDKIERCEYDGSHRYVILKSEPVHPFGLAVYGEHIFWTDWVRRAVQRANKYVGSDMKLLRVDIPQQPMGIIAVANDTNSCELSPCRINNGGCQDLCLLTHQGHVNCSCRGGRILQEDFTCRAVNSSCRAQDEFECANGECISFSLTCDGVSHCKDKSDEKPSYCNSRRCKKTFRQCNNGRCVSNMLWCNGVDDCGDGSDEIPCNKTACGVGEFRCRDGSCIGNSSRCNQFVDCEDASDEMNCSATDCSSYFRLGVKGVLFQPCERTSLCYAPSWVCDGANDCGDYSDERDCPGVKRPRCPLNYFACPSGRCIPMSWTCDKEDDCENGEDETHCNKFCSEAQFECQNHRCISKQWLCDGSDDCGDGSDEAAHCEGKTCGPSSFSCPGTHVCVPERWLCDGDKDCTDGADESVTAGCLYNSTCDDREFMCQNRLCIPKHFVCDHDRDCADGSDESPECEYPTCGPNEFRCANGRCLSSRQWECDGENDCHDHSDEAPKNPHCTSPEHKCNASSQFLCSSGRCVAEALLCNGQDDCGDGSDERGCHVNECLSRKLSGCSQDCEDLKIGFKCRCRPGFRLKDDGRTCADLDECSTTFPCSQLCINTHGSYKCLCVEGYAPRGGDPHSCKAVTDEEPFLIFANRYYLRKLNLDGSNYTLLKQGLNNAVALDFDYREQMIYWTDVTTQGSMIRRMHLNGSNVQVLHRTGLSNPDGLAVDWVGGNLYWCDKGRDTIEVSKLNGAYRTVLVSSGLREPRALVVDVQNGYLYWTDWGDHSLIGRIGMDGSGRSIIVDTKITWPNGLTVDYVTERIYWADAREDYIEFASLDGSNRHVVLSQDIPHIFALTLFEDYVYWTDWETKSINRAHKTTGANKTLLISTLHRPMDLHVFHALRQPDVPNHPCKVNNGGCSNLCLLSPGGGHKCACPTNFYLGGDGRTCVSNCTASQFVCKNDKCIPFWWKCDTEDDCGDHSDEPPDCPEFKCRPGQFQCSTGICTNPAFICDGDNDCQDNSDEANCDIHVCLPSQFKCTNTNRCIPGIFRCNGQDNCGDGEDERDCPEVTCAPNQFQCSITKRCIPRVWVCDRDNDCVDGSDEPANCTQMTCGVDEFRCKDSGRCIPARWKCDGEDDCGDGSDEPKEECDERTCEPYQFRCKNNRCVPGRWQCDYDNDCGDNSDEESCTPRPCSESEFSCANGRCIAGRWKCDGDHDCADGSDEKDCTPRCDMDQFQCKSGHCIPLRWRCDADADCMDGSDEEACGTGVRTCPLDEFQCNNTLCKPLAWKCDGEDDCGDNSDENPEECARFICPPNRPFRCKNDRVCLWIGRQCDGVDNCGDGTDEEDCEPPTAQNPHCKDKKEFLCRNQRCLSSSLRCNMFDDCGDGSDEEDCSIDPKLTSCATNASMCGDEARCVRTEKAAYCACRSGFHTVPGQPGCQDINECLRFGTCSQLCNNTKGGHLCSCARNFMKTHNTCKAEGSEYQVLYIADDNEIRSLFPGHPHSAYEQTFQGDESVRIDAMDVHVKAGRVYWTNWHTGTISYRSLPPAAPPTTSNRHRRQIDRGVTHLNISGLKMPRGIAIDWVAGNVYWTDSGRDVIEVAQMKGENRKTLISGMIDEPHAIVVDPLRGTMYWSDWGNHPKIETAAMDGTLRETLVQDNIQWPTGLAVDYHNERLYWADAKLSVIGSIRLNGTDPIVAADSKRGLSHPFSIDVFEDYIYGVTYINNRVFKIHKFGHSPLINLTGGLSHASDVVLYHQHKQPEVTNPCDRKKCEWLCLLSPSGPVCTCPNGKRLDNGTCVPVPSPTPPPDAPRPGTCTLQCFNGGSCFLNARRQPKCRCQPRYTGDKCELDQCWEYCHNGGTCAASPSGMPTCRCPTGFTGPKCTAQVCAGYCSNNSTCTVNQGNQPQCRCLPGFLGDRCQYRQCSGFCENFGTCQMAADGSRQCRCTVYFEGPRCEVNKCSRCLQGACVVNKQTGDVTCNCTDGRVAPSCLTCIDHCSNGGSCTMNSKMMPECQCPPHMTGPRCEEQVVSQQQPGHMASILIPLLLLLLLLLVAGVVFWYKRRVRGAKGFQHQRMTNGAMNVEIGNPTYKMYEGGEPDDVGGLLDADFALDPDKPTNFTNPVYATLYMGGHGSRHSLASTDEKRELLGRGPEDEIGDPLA"}, "source": "patent US7247611", "target": "α2-macroglobulin receptor/low density lipoprotein-related receptor protein on LM-TK- cells (UniProt Q91ZX7)", "experiment": "125I-scuPA on LM-TK- cells at 4 C, Scatchard analysis, with peptide EEIIMD"}
{"substance": "scuPA in the presence of peptide EEIIMD (from UniProt P00749 21-431) (other; radiolabeled with 125I (iodobeads) in the binding assays)", "values": [{"measurement": "Kd", "value": 35, "unit": "nM"}]}
